Reference: ChEMBL document CHEMBL5370639, “Structure-Based Lead Optimization of Enterovirus D68 2A Protease Inhibitors” (J Med Chem, 2023)

Test system: enterovirus D68
Conditions: time 2.0 hrs

## CCC[C@H](NC(=O)[C@@H]1[C@H]2CCC[C@H]2CN1C(=O)[C@@H](NC(=O)[C@@H](NC(=O)c1cnccn1)C1CCCCC1)C(C)(C)C)C(=O)C(=O)NC1CC1
  Kinact: 0.001 s⁻¹
